For assay [1], the system named is HCT116 dual cells. Put plainly: HCT116 Cell Assay (Lucia luciferase reporter of Type I interferon induction). As to conditions: read-out: HCT116 EC50; 4 h pre-treatment, pBR322/BstNI DNA transfection, Lucia luciferase at 48 h; relative to 10 uM compound 39. The source says: HCT116 dual cells (Invivogen, San Diego, Calif., USA) are derived from the human HCT116 colorectal carcinoma cell line. Cells have been selected for the stable integration of SEAP and Luciferase reporter genes, which expression is under the control of 5 tandem response elements for NF-KB/AP1 and STAT1/STAT2, respectively. The cell line was used to monitor Type I interferon induction and subsequent signaling by measuring the activity of the Lucia luciferase secreted in the culture medium.
HCT116 cells were plated in 96-well plate(s) at 40,000 cells/well in 100 uL DMEM supplemented with 10% FBS and 25 mM Hepes (pH 7.2-7.5). After overnight settling, cells were treated with TREX1i for 4 h (maximum DMSO fraction was 0.1%) before 1.25 ug/mL pBR322/BstNI restriction digest (New England Biolabs, Ipswich, Mass., USA) was transfected with Lipofectamine LTX (ThermoFisher, Grand Island, N.Y., USA), according to product manual recommendations. Briefly, Lipofectamine LTX (0.4 uL/well) was diluted in OptiMEM (5 uL/well). pBR322/BstNI (100 ng/well) was diluted in OptiMEM (5 uL/well) before Plus reagent (0.1 uL/100 ng DNA) was added. After 5 min incubation at room temperature, the DNA mixture was mixed dropwise with the diluted Lipofectamine LTX. After an additional 10 min incubation, the transfection mix (10 uL/well) was added to the cells. […]
On the technique in general: In a reporter assay the amount or activity of a reporter protein is the signal.

The chains behind the UniProt entries cited, without tags or fusion partners.
UniProt Q9BQ50, whole entry: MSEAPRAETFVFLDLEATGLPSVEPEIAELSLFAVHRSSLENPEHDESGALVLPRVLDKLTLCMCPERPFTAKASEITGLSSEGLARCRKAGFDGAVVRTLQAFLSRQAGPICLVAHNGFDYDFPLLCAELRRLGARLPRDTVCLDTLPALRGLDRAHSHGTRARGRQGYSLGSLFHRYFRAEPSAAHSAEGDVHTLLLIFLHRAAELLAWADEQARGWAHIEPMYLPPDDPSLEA
UniProt Q9NSU2, whole entry: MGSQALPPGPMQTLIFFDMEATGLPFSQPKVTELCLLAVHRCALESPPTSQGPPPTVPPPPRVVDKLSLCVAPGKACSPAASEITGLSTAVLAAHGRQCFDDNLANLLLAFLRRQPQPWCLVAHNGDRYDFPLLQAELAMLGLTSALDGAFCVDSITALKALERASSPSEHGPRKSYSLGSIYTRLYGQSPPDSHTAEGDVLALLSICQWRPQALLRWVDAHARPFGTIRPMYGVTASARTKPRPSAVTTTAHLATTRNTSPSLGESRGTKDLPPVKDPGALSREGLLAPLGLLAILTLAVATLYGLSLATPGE

Assay [2] has as its target human TREX2 (residues M44-A279) (Homo sapiens, UniProt Q9BQ50). The assay can be described thus: TREX2 Biochemical Assay (fluorescence, dsDNA substrate degradation). As to conditions: read-out: TREX2 IC50; 2.5 nM TREX2, 60 nM dsDNA substrate, 25 minutes at room temperature. The protocol:
(§1) Degradation of the dsDNA liberates free fluorophore to produce a fluorescent signal. Specifically, 7.5 μL of N-terminally His-Tev tagged human TREX2 (residues M44-A279, expressed in E. coli and purified in house) in reaction buffer (50 mM Tris (pH 7.4), 150 mM NaCl, 2 mM DTT, 0.1 mg/mL BSA, 0.01% (v/v) Tween-20 and 100 mM MgCl2) was added to a 384-well Black ProxiPlate Plus (Perkin Elmer) which already contained compound (150 nL) at varying concentrations as a 10 point dose-response in DMSO. To this was added 7.5 μL of dsDNA substrate (Strand A: 5′ TEX615/GCT AGG CAG 3′; Strand B: 5′ CTG CCT AGC/IAbRQSp (IDT)) in reaction buffer. Final concentrations were 2.5 nM TREX2, 60 nM dsDNA substrate in reaction buffer with 1.0% DMSO (v/v). After 25 minutes at room temperature, reactions were quenched by the addition of 5 μL of stop buffer (same as reaction buffer plus 200 mM EDTA). […] After a 5-minute incubation at room temperature, plates were read in a laser sourced Envision (Perkin-Elmer), measuring fluorescence at 615 nm following excitation w/570 nm light. IC50 values were calculated by comparing the measured fluorescence at 615 nm ratio relative to control wells pre-quenched w/stop buffer (100% inhibition) and no inhibitor (0% inhibition) controls as using non-linear least square four parameter fits and either Genedata or GraphPad Prism (GraphPad Software, Inc.).

Assay [3] concerns the target full length human TREX1 (Homo sapiens, UniProt Q9NSU2). Put plainly: TREX1 Biochemical Assay (fluorescence, dsDNA substrate degradation). As to conditions: read-out: TREX1 IC50; 150 pM TREX1, 60 nM dsDNA substrate, 25 minutes at room temperature. As to the method: as §1, with “tagged full length” for “tagged”, “TREX1 (expressed” for “TREX2 (residues M44-A279, expressed”, “(Integrated DNA Technologies))” for “(IDT))”, “150 pM TREX1,” for “2.5 nM TREX2,”

The results in this text go back to US20220289728A1, “MODULATORS OF TREX1” (Constellation Pharmaceuticals, Inc., priority 2019, published 2022).

For orientation: EC50 means the concentration needed to bring the measured effect to its halfway point. As usually defined, the IC50 is the midpoint of a concentration-inhibition curve.

In the case of `CCOc1cccc(Cl)c1C(c1ccccc1)N(C)c1nc(C(=O)Nc2cnoc2)c(O)c(=O)n1C` (single isomer, unassigned), the EC50 in assay [1] is < 1 µM. For the same compound, the concentration for half-maximal inhibition (IC50) in assay [2] is < 1 µM; in assay [3] it was < 0.1 µM.
